This passage reports EC50 results from article PMC8050214 (Scientific Reports, 2021).

Amino acid sequences for entries named in this document (tags omitted). A change or cut given only in a name is not applied to a line headed by its entry.
UniProt P14416, whole entry: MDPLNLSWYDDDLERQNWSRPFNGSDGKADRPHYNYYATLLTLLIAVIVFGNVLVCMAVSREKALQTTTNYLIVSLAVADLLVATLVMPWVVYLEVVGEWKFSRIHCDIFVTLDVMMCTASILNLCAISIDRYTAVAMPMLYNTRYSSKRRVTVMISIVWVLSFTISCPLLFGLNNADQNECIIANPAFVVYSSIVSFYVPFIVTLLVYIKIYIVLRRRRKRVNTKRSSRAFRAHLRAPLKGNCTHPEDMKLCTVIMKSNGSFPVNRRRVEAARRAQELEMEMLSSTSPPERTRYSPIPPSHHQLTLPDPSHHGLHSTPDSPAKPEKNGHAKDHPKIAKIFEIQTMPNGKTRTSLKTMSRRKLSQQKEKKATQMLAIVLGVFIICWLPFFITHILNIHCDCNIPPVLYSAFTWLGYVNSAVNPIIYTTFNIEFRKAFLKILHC

This experiment concerns the target T1, hD2LR (human dopamine D2 receptor, long splice variant) (Homo sapiens, UniProt P14416).
T1 construct: gene DRD2; full-length long isoform, stably expressed in Flp-In HEK293 cells (G protein BRET assay); C351I G alpha subunits co-transfected as sensors; hD2LR-NLuc fusion with GRK2-Venus in the GRK2 recruitment assay (SCH23390 row)
Kind of experiment: BRET G protein (GαoA) activation, Gβγ-Venus / masGRK3ct-NLuc release. The experiment is classed as cell-based.

Each structure is given as a SMILES string.

Turning to `Oc1ccc2[nH]cc(CCCCN3CC=C(c4ccccc4)CC3)c2c1` [Roxindole], the EC50 came out at 0.912 nM.
